From PubChem BioAssay AID1645888 (National Center for Advancing Translational Sciences (NCATS), 2021)
The entries are a selection whose mix differs from that of the whole data set. Results filed as inconclusive are left out. Activity calls are given as the source filed them. Calls come from the whole dose curve; as a rule, active = well fitted inhibition curve with a large enough effect; inconclusive = small, poorly fitted or top-dose-only effect; inactive = no such curve, though single readings can be large or run the other way.

molecular target: Rap guanine nucleotide exchange factor 3 (Homo sapiens) (UniProt O95398); assay: Counterscreen qHTS for antagonist of cAMP-regulated guanine nucleotide exchange factor 3 (EPAC1); settings: Rap1B-BODIPY-GDP nucleotide exchange, fluorescence; at 154 µM (top of the series); note: % of control where 0% means no effect
Text: Assay Provider (PI): Xiaodong Cheng Ph.D. The University of Texas Medical Branch, Houston, TX MLPCN Grant: NS066510 In multi-cellular eukaryotic organisms, the effects of cAMP are transduced by two ubiquitously-expressed intracellular cAMP receptors, the classic protein kinase A/cAMP-dependent protein kinase (PKA/cAPK) and the more recently discovered exchange protein directly activated by cAMP/cAMP-regulated guanine nucleotide exchange factor (EPAC/cAMP-GEF). Both PKA and EPAC are ubiquitously expressed in all tissues, and an increase in intracellular cAMP levels will lead to the activation of both PKA and EPAC. […] This qHTS will be used to screen the Molecular Libraries Small Molecule Repository (MLSMR) as a concentration-titration series using the NCGC unique quantitative screening (qHTS) platform to find activators for EPAC1. […] Activators are identified by monitoring the change in fluorescence signal as the exchanged free BODIPY-GDP has a reduced fluorescence compared to Rap1-bound BODIPY-GDP. […]
EPAC1 Counterscreen PROTOCOL TABLE SEQUENCE No. (e.g., 1, 2, 3, etc.); […] […] Fluorescence. (Read 1), Ex/Em = 480 nm / 540 nm. […] Fluorescence. (Read 2), Ex/Em = 480 nm/ 540 nm. […] Fluorescence. (Read 3), Ex/Em = 480 nm / 540 nm. […] Fluorescence. (Read 4), Ex/Em = 480 nm / 540 nm. […]

CCCCn1nnnc1C(c1cc2ccccc2o1)N1CCC(n2c(=O)[nH]c3ccccc32)CC1 (configuration not stated) was tested. Which activity change, negative = inhibition did it give?
The activity change, negative = inhibition was inactive: -9.69%.

Which activity change, negative = inhibition does the source give for CCC(c1nnnn1C(C)(C)C)N1CCC(n2c(=O)[nH]c3ccccc32)CC1 (configuration not stated) here?
Its activity change, negative = inhibition is inactive: 1.12%.
